{"source": "paper PMC7601674", "about": "(2020)", "key": {"[1]": {"system": "primary porcine brain endothelial cells (PBEC) monolayer"}, "[2]": {"system": "bEnd.3 cells (mouse BBB cell line) monolayer"}}}
{"substance": "FITC-dextran 40 [FITC-40]", "values": [{"measurement": "FITC-dextran 40 (FITC-40) paracellular permeability (Papp)", "setting": "[1]", "value": "1.3 ± 0.1 × 10^−6 cm · sec^−1"}, {"measurement": "Transport to the Basal side, percentage of Apical compartment", "setting": "[1]", "value": "1.03 ± 0.17", "unit": "%"}, {"measurement": "Effect of serum pre-incubation on Papp (A to B and B to A)", "setting": "[2]", "value": "did not change transport in either direction"}, {"measurement": "FITC-40 Papp", "setting": "[2]", "value": "3.3 ± 0.4 × 10^−6 cm.sec^−1"}]}
